Article PMC7026020

Chains of the proteins cited; added tags and fusions are not shown. A line that says so, or that is headed by a name, gives the form on record, which may keep a tag or linker. Residues count along the entry.
UniProt P02745, 23-245: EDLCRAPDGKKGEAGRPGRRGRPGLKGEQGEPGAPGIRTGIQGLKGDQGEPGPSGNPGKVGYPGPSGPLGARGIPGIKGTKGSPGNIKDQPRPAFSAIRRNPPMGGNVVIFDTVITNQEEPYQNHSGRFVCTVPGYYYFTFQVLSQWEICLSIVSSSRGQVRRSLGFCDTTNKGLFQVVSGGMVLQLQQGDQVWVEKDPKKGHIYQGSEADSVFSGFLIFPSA
C1q, UniProt P02746, 28-253: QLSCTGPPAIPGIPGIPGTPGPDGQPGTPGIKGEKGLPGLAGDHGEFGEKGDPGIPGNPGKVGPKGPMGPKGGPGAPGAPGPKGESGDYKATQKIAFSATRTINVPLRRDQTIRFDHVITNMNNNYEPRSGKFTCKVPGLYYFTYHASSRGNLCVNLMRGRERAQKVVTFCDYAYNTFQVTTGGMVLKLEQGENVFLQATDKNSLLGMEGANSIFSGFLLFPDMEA
C1q, UniProt P02747, 29-245: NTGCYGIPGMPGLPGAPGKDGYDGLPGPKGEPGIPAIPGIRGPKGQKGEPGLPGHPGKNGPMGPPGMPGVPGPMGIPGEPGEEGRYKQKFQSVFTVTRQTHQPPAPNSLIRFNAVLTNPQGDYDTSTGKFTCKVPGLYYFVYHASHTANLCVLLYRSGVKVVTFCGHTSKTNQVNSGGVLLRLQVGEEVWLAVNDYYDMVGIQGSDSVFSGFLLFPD
single-cleaved trastuzumab (human), light, as listed by the source, chain 2 of 2: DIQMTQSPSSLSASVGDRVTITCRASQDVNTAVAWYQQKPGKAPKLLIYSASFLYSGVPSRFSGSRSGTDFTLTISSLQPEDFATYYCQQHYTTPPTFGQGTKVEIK
single-cleaved rituximab (human), heavy, as listed by the source, chain 1 of 2: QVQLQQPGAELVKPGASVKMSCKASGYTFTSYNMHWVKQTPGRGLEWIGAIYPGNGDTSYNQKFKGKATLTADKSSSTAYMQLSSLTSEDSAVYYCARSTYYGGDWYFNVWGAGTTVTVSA
single-cleaved rituximab (human), light, as listed by the source, chain 2 of 2: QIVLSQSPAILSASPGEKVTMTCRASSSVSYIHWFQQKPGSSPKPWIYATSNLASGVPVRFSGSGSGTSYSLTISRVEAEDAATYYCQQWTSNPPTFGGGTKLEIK

Experiments:
[1] = target: single-cleaved rituximab (human); test: ELISA
[2] = target: single-cleaved trastuzumab (human); test: ELISA

fold decrease of binding against the intact counterpart [1]: 10 fold
fold decrease of binding against the intact counterpart [2]: 10 fold
Substance: C1q (from UniProt P02745 23-245; P02746 28-253; P02747 29-245) (complex)
